Usually IC50 stands for the concentration that gives 50% inhibition. High values mean lower potency, low ones higher potency.

Chains of the proteins cited; added tags and fusions are not shown.
UniProt Q15858, whole entry: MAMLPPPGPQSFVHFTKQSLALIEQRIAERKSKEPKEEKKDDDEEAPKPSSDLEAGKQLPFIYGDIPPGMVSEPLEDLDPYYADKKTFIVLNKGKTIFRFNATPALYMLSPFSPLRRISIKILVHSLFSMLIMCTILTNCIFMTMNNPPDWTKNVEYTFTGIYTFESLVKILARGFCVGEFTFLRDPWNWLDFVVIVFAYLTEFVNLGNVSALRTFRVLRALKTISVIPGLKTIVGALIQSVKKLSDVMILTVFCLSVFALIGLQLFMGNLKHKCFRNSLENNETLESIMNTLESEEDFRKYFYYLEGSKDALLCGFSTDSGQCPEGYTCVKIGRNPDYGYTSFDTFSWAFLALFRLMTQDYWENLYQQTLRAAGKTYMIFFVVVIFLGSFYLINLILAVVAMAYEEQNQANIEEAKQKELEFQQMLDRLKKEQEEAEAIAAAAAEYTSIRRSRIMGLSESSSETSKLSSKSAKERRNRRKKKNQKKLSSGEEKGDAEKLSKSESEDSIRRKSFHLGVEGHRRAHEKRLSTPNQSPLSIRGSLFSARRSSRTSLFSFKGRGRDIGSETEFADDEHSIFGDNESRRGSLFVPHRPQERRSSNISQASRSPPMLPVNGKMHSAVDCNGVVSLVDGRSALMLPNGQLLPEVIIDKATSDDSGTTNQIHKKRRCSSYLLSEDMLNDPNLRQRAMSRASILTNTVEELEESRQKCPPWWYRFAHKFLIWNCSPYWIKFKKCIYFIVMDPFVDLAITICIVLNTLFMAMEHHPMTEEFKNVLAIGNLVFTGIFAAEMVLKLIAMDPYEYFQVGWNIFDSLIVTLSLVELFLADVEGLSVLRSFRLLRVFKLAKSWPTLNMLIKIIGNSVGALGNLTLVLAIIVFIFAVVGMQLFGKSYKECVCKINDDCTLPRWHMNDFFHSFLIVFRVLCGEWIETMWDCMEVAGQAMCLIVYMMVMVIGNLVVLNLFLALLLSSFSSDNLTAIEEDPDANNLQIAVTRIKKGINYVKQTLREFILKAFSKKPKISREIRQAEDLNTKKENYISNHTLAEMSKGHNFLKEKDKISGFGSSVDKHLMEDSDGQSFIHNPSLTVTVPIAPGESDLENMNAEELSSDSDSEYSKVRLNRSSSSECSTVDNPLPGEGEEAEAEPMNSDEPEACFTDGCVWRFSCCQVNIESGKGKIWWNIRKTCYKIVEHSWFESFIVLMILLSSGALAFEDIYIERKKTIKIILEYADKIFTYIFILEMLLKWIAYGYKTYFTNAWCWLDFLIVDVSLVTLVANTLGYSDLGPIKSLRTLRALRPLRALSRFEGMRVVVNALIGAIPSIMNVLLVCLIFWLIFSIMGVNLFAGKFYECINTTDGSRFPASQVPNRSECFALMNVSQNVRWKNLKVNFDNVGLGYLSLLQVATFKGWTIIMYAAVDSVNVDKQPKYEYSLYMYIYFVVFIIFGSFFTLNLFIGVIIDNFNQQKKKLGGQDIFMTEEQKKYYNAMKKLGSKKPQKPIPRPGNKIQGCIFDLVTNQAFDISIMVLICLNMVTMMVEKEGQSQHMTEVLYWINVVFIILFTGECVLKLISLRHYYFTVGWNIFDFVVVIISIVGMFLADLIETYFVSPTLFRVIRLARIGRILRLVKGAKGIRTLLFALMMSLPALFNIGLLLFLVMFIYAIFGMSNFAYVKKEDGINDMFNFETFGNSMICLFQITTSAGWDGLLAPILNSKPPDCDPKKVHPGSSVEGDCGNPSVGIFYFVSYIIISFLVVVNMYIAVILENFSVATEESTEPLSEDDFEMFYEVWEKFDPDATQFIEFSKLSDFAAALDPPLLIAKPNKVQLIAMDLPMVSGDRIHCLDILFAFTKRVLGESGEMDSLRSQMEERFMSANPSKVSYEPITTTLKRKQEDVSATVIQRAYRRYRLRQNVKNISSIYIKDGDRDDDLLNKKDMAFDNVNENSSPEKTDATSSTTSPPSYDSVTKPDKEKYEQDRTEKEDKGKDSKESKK

This assay deals with Nav 1.7 (Homo sapiens (Human), UniProt Q15858). Description: in-vitro Nav 1.7 PX data. In kind it is cell-based.

Compound `COc1cc(-c2ccc(Cl)c(C)c2)c(C#N)cc1-c1nccc2cc(S(=O)(=O)Nc3nncs3)ccc12` [Example 228, 1-(4′-chloro-2-cyano-5-methoxy-3′-methyl-4-biphenylyl)-N-1,3,4-thiadiazol-2-yl-6-isoquinolinesulfonamide] gave an IC50 (in-vitro PX) of 0.0133 µM.
The compound `COc1cc(-c2cccc(F)c2)c(Cl)cc1-c1ncnc2cc(S(=O)(=O)Nc3ccon3)ccc12` [Example 227, 4-(2-chloro-3′-fluoro-5-methoxy-4-biphenylyl)-N-3-isoxazolyl-7-quinazolinesulfonamide] gave an IC50 (in-vitro PX) of 0.0369 µM.
`COc1cc(-c2ccc(C)c(F)c2)c(C#N)cc1-c1nccc2cc(S(=O)(=O)Nc3ccon3)ccc12` [Example 81, 1-(2-cyano-3′-fluoro-5-methoxy-4′-methyl-4-biphenylyl)-N-3-isoxazolyl-6-isoquinolinesulfonamide] came in with a concentration for half-maximal inhibition (IC50) (PatchXpress (PX), in vitro) of 0.0903 µM. This lies in the double-digit nanomolar range.
As to `COc1cc(-c2cccc(C(F)(F)F)c2)c(F)cc1-c1nn(C)c(=O)c2cc(S(=O)(=O)Nc3nncs3)ccc12` [Example 234, 1-(2-fluoro-5-methoxy-3′-(trifluoromethyl)-4-biphenylyl)-3-methyl-4-oxo-N-1,3,4-thiadiazol-2-yl-3,4-dihydro-6-phthalazinesulfonamide], where the note is “in-vitro PX”, half-maximal inhibition (IC50) was put at 0.0784 µM. That is a double-digit nanomolar value.
For the setting “in-vitro Nav 1.7 PX data”, `COc1cc(-c2cc(C)cc(F)c2)c(C#N)cc1-c1nccc2cc(S(=O)(=O)Nc3ccncn3)ccc12` [Example 164, 1-(2-cyano-3′-fluoro-5-methoxy-5′-methyl-4-biphenylyl)-N-4-pyrimidinyl-6-isoquinolinesulfonamide] showed an IC50 of 0.0924 µM. In other words, the double-digit nanomolar range.
In turn, `COc1cc(-c2cc(C)c(C)cc2C)c(C#N)cc1-c1nccc2cc(S(=O)(=O)Nc3ccncn3)ccc12` [Example 165, 1-(2-cyano-5-methoxy-2′,4′,5′-trimethyl-4-biphenylyl)-N-4-pyrimidinyl-6-isoquinolinesulfonamide] showed an IC50 (in-vitro Nav 1.7 PX data) of 0.0306 µM.
Compound `COc1ccc(F)cc1-c1cc(OC)c(-c2ncnc3cc(S(=O)(=O)Nc4ccon4)ccc23)cc1C` [Example 191, 4-(5′-fluoro-2′,5-dimethoxy-2-methyl-4-biphenylyl)-N-3-isoxazolyl-7-quinazolinesulfonamide] came in with an IC50 (in-vitro PX (PatchXpress) data) of 0.0447 µM.

Source of the values: patent US9776995B2, “Bicyclic sulfonamide compounds as sodium channel inhibitors” (AMGEN INC., priority 2013, dated 2017).
